# According to patent publication EP1330253B1, “USE OF BIOACTIVE FRACTION FROM COW URINE DISTILLATE ('GO MUTRA') AS A BIO-ENHANCER OF ANTI-INFECTIVE, ANTI-CANCER AGENTS AND NUTRIENTS” (Council of Scientific and Industrial Research, priority 2000, dated 2002):
# Conditions: with the sample; goat intestine; within 2 hours, keeps increasing upto 4 hours
substance,measurement,value
Vitamin B-12,enhancement of bioavailability across the mammalian gut membrane,enhancement of bioavailability
